Measurements from patent US20230112958A1, “Smart Drug Delivery System and Pharmaceutical Kit for Dual Nuclear Medical Cytotoxic Theranostics” (SCV-SpezialChemikalienVertrieb GmbH, priority 2019, published 2023).

Sequences of proteins named here, by UniProt entry; tags and fusion partners are left off.
UniProt Q04609, whole entry: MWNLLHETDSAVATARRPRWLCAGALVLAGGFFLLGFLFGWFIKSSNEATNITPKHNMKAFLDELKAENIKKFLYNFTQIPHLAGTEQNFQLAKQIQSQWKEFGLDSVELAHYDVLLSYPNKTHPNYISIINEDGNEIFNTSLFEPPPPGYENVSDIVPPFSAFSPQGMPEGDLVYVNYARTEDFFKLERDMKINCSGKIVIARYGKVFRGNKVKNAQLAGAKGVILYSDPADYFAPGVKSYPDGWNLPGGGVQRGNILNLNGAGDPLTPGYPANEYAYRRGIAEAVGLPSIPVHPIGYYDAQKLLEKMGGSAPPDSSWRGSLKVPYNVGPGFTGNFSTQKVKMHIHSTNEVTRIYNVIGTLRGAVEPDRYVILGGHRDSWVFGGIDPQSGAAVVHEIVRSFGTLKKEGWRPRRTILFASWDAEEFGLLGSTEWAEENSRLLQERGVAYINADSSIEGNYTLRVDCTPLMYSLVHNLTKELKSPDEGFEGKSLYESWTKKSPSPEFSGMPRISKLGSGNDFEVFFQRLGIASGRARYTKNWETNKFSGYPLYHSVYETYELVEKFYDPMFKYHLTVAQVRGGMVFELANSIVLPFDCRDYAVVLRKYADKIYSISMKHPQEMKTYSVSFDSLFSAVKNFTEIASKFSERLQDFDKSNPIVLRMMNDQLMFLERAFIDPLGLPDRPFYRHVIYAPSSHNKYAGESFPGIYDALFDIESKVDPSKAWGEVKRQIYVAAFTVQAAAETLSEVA

Target: PSMA (Homo sapiens, UniProt Q04609)
Test: Cell-based competitive PSMA binding assay on LNCaP cells against reference 68Ga[Ga]PSMA-10
Conditions: for Ki: read-out: Ki (PSMA binding affinities), competition with 68Ga[Ga]PSMA-10, 45 min incubation, calculated from inhibition curves

Structure (SMILES)	IC50 (read-out: IC50 (PSMA binding affinities), competition with 68Ga[Ga]PSMA-10, 45 min incubation)	Ki
CCOc1c(NCCCC[C@H](NC(=O)N[C@@H](CCC(=O)O)C(=O)O)C(=O)O)c(=O)c1=O	35.9 nM	29.3 nM
NCCN1CCN(CC(=O)O)CCN(C(CCC(=O)NCCNc2c(NCCCCC(NC(=O)NC(CCC(=O)O)C(=O)O)C(=O)O)c(=O)c2=O)C(=O)O)CCN(CC(=O)O)CC1 (stereo not drawn)		18.1 nM
